The target of the assay is V2, variant of human Factor VII (P10Q, K32E, A34E, R36E, T106N and V253N) (human).

As to “neuraminidase-agarose (Sigma N5254) (enzyme)”, the sialic acid removed (Sialic Acid Fluorescence Labeling) was above 99.9%.

The values above are taken from patent publication US20230295596A1, “SHORT-ACTING FACTOR VII POLYPEPTIDES” (published 2023).
